Test system: silkworm
Test: Quantity of various dyes in sericin, fibroin and gland content of dye-fed silkworms
Details: FIG. 12, result in words

Substance: rhodamine 116
- Amount of dye present in silk (sericin and fibroin) and silkworm: substantial amounts in both sericin and fibroin
- Distribution of dye between silk sericin and fibroin: more in silk sericin than fibroin

— patent US20120039813A1, “INTRINSICALLY COLORED, LUMINESCENT SILK FIBROIN AND A METHOD OF PRODUCING THE SAME” (priority 2009, published 2012)
